Measured values published in patent US20220380348A1, “AXL INHIBITOR FORMULATIONS” (Sumitomo Dainippon Pharma Oncology, Inc., priority 2019, published 2022).

Test: Pharmacokinetic testing of salt forms, oral dosing in rats (Example 5)
Assay type: in vivo
Details: fasted male Sprague-Dawley rats, mean values, dose mg/kg: Compound 1 18.2, Phosphate 14.3, Tartrate 18.7, Malate 18.6, Succinate 18.7, Benzenesulfonate 17.6

In the case of `CN1CCN(Cc2ccc(Nc3ncc(Cl)c(Nc4ccccc4S(=O)(=O)N(C)C)n3)cc2)CC1.O=C(O)C[C@H](O)C(=O)O` [Malate Salt], the Bioavailability is reported as 37.3%.
